Target: Human immunodeficiency virus type 1 reverse transcriptase (Human immunodeficiency virus 1, UniProt Q72547)
Assay: Inhibition of HIV1 reverse transcriptase assessed as reduction in biotin-dUTP incorporation using poly(rA)-oligo(dT) as template/primer and digoxigenin-dUTP/biotin-dUTP/dTTP nucleotides incubated for 1 hr by ELISA

For `Cc1cc(C#N)cc(C)c1Oc1nc(Nc2ccc(C#N)cc2)nc(N)c1Br` [ETRAVIRINE], which IC50 is on record?
The IC50 was 3.1 µM.
